This is a selection: effects in other tests are not listed, and their absence says nothing.
Test: Growth inhibition against CHO-derived cell line AA8
Assay type: functional, cell-based, Cricetulus griseus
In short: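 Log-phase AA8 (200 viable cells/well) or UV4 (300 viable cells/well) cells with 5000 lethally irradiated AA8 feeder cells per well, in α-MEM with 10% heat-inactivated fetal calf serum. Cell mass read after 72-78 h by methylene blue protein staining and absorbance. IC50 = concentration reducing cell mass to 50% of the mean of 8 same-plate controls; means of at least 3 determinations ± SEM. Hypersensitivity factor = aerobic IC50(AA8)/IC50(UV4).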

For `NCCN(CCCl)CCCl`, the IC50 was 1500 nM.

Source: ChEMBL document CHEMBL1126720 (J Med Chem, 1993)
